From paper PMC4059180 (Journal of medicinal chemistry, 2013)

Tested on: mFAP transfected HEK293 cells
Details: 48 h, CellTiter-Blue

CC(C)[C@H](N)C(=O)N1CCC[C@H]1B(O)O [Compound 20, (S)-Valinyl-(R)-boroproline]
cytotoxicity: lack cytotoxicity
